From patent US7638119B2, “Method of diminishing the symptoms of neurodegenerative disease” (priority 2004, dated 2009) come the findings set out here.

The data set relates to Nrf2−/−, +/− and +/+ mice. Here is the method: Mice were anesthetized with isoflurane. […] One minute after insertion of the Hamilton syringe, the solution was administered over 2 minutes and the needle was withdrawn 2 mm per minute. ARE-hPAP+ mice were injected similarly with 0.25M (1 μl), due to differences in background strain sensitivity.
Mice were euthanized with CO2 and perfused with 4% paraformaldehyde. Tissues were post-fixed overnight at 4° C. and cryoprotected in 30% sucrose/PBS. Using a cryostat (Leica), adjacent coronal 20 μm and 50 μm sections were taken for staining with Fluorojade-B and cresyl violet respectively through the entire striatum. […] Lesion size was quantified using the Cavieleri Estimator (Stereoinvestigator; Microbrightfield) on sections 200 μm apart. HPAP histochemistry was measured as previously described (Johnson, D. A., et al., supra, 2002).
Ten days post-injection mice were sacrified and lesion size was measured by cresyl violet staining (FIG. 4A).

Take `O=C(O)CC(=O)O` [malonate]: the “Mice with measurable lesion” value is recorded as “Only one”.
